Experiment in all cases: co-IP; anti-Flag M2 affinity gel on extracts of human HEK 293 cells transfected with mouse 3xFlag Cyclin A2 alleles; endogenous partners detected by Western blot; densitometry (ImageQuantTL) normalised to immunoprecipitated Cyclin A2, percent of WT; repeated 3 times
On the technique in general: A western blot detects proteins with antibodies after separation by electrophoresis.

In assay [1] the target is Cyclin A2 L204A, C-terminally fused to 3 Flag tags (mouse) (UniProt P51943).
For assay [2], the target named is Cyclin A2 WT, C-terminally fused to 3 Flag tags (mouse) (UniProt P51943).
The target of assay [3] is Cyclin A2 W207A, C-terminally fused to 3 Flag tags (mouse) (UniProt P51943).
The target in assay [4] is Cyclin A2 D171A, C-terminally fused to 3 Flag tags (mouse) (UniProt P51943).
For assay [5], the target named is Cyclin A2 M200A, C-terminally fused to 3 Flag tags (mouse) (UniProt P51943).

“CDK2 (endogenous, HEK 293) (from UniProt P24941 1-298) (enzyme)”: the percent co-precipitated relative to WT in assay [1] worked out at 12.6%; in assay [2] it was 100%; in assay [3], 5%; in assay [4], 96%; in assay [5], 100%.
